Laboratory results as given in patent publication US20240034723A1, “PIPERIDINYL SMALL MOLECULE DEGRADERS OF HELIOS AND METHODS OF USE” (DANA-FARBER CANCER INSTITUTE, INC., priority 2020, published 2024).

Protein sequences, listed by entry. Tags and fused reporters are not part of them.
UniProt Q96SW2, whole entry: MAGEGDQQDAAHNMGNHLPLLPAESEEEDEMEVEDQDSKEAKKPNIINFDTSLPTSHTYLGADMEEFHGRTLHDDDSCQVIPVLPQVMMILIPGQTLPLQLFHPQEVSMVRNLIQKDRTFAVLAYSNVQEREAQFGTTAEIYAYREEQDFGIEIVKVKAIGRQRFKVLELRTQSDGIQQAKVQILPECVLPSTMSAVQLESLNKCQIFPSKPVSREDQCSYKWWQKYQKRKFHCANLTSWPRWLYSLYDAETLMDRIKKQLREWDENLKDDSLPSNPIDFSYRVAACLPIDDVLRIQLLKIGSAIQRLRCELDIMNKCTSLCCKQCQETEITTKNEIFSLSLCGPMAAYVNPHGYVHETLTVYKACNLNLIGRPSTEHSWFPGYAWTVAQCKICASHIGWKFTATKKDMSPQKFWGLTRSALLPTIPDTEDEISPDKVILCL
UniProt Q9UKS7, whole entry: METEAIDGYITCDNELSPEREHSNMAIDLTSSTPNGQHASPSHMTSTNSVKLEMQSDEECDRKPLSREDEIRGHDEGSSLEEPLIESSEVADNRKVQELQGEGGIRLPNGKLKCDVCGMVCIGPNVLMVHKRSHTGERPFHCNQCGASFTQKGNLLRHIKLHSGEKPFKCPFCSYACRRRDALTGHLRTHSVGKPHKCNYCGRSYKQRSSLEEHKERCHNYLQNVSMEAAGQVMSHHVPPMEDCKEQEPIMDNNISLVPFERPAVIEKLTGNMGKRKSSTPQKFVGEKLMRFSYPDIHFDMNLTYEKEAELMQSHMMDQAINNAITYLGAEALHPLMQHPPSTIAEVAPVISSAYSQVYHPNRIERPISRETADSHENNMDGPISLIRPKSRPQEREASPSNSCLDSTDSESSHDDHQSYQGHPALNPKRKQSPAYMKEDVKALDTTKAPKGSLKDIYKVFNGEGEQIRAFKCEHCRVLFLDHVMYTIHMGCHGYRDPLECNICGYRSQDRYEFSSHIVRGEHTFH
UniProt Q16531, whole entry partner: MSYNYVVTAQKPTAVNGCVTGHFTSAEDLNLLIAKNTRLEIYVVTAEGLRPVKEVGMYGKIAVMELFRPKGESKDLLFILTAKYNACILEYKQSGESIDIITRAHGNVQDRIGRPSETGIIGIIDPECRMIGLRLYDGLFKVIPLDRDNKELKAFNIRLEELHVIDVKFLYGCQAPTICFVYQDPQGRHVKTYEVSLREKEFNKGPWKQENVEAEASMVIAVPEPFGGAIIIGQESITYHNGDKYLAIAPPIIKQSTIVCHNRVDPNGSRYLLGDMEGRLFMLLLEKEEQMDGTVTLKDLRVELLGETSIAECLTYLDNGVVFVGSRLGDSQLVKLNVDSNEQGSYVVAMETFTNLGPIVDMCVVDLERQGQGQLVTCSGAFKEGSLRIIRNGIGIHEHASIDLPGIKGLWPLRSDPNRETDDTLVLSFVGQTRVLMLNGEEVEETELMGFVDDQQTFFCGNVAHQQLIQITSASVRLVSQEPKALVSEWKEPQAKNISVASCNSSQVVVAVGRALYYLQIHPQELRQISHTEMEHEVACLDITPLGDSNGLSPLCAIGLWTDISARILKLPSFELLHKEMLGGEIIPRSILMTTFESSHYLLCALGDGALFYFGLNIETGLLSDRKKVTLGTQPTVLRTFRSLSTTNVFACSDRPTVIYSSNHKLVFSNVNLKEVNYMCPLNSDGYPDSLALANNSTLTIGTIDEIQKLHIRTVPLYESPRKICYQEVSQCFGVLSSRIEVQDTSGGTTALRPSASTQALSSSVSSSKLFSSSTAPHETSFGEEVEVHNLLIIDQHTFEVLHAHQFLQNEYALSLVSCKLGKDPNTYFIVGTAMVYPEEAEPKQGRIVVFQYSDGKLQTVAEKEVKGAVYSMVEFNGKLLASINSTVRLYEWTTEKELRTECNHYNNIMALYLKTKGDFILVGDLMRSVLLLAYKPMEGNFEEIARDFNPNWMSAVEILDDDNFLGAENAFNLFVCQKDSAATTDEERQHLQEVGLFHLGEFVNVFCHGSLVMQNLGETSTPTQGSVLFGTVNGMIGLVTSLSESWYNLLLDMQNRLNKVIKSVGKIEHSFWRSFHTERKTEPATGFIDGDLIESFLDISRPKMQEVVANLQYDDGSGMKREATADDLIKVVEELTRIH

Molecular target: IKZF2 (Helios) (Homo sapiens, UniProt Q96SW2+Q9UKS7)
Experiment: HiBiT protocol: HiBiT-Helios degradation in MOLT4 cells (Example 63)
Details: read-out: IKZF2 DC50, after 6 hours of treatment, 13-point 10 μM to 0.00026 μM
Method: The HiBiT protein tagging system was applied to MOLT4 cells via a CRISPR/Cas-mediated insertion of the HiBiT peptide tag (Promega™) to the N-terminus of the IKZF2 gene locus (Neon™ Transfection System). The resulting HiBiT-Helios stable cell line was treated with the following inventive compounds in triplicates following a 13-point concentration scheme ranging from 10 μM to 0.00026 μM. At the indicated timepoints, the Nano-Glo® HiBiT Lytic Detection system (Promega™) was utilized for detecting bioluminescence of the HiBiT tag in treated cells: the abundance of the tag is proportionate to the level of luminescence. Following normalization to DMSO, dose-response curves were plotted (GraphPad Prism) to determine the concentration points at which 50% of HiBiT-Helios degradation was achieved by each compound. The extent of degradation (range of luminescence) from the highest to lowest concentration points was calculated to determine Dmax.

O=C1CCC(N2Cc3cc(C4CCN(Cc5cccc6c5OCCN(c5ccccc5)C6=O)CC4)ccc3C2=O)C(=O)N1 (stereo not shown)
DC50: 5 to 25 nM
